# Assay: Protolysis constant at an ionic strength of 0.1 M.
# Format: ADME
structure (smiles),measurement,value
Cc1cc([N+](=O)[O-])cc([N+](=O)[O-])c1O,pKa,4.4
